The values that follow come from US8450352B2, “Thiazole compounds and their use for inhibiting phosphodiesterase 4, TNF-α, and IL-4” (Otsuka Pharmaceutical Co., Ltd., priority 2004, dated 2013).

Sequences of proteins named here, by UniProt entry; tags and fusion partners are left off.
UniProt Q08499, whole entry: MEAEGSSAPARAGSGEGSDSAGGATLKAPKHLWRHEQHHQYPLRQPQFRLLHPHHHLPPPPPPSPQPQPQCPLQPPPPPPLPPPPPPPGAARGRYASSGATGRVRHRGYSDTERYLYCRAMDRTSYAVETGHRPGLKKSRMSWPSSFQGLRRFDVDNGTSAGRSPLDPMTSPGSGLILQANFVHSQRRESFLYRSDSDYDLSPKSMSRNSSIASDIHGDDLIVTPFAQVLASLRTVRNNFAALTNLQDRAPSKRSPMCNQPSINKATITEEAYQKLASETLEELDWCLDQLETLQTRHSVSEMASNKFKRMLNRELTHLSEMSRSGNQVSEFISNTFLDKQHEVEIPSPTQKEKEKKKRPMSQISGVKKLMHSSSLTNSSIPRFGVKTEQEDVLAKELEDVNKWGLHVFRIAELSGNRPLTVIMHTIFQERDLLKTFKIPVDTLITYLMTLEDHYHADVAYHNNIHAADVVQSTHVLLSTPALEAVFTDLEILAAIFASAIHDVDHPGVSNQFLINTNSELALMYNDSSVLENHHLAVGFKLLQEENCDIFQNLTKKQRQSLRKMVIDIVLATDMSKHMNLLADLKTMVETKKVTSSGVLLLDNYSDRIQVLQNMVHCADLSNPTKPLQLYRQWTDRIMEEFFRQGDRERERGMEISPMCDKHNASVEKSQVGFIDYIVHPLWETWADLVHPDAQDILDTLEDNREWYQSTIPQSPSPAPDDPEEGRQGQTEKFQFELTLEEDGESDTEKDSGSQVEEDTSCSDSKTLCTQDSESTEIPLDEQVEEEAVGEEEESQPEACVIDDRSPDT

This experiment has as its target human PDE4D (HPDE4D) (Homo sapiens, UniProt Q08499). Put plainly: Confirmatory test for phosphodiesterase (PDE) 4 inhibitory activity. The settings on record: read-out: IC50 value; concentration that inhibits the PDE4 activity by 50%; PDE4D enzyme solution from transfected COS-7 cells, [3H]cAMP substrate.
Take `CCOc1ccc(-c2nc(CC(C(=O)OC)C(=O)c3ncccc3OC)cs2)cc1OCC` (centres unmarked): the IC50 is 10 nM. With `CCOc1ccc(-c2nc(CCC(=O)c3cccn3C)cs2)cc1OCC`, the concentration for half-maximal inhibition (IC50) stood at 10 nM. For `CCOc1ccc(-c2nc(CCC(=O)c3nc(C)cs3)cs2)cc1OCC`, the IC50 is 5.7 nM. As to `CCOc1ccc(-c2nc(CCC(=O)c3ncccc3C)cs2)cc1OCC`, the IC50 stood at 1.6 nM.

Take `CCOc1ccc(-c2nc(CCC(=O)c3nccn3C)cs2)cc1OCC`: the concentration for half-maximal inhibition (IC50) came out at 15 nM.

The term IC50 denotes the midpoint of a concentration-inhibition curve.
